# From US9242969B2, “Biaryl amide compounds as kinase inhibitors” (Novartis AG, priority 2013, dated 2016)
# Amino acid sequences for entries named in this document (tags omitted).
# UniProt P04049, whole entry Y340E/Y341E: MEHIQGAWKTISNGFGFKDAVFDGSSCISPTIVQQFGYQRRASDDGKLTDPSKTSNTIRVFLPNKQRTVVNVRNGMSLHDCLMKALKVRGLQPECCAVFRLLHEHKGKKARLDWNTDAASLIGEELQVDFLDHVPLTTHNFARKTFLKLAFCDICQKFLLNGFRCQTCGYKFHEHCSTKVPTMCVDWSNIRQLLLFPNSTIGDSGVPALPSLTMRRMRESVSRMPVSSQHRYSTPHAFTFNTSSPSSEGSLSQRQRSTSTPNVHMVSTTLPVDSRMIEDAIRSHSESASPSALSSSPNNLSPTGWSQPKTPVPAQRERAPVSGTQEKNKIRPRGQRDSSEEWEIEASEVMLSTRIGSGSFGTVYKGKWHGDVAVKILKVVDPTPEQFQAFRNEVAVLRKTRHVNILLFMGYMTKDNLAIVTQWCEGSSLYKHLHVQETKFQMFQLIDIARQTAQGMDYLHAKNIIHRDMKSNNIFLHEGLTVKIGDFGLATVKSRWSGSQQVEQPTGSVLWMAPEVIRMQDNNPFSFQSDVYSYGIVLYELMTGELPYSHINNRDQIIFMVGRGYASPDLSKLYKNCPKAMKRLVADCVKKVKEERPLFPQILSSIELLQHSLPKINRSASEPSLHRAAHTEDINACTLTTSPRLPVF
# Biological target: C-Raf FL (full-length C-Raf with Y340E and Y341E activating mutations) (Homo sapiens (Human), UniProt P04049, Y340E/Y341E)
# Type: biochemical
# Conditions: full-length c-Raf 4 pM, ATP 3 uM, 10 nM biotinylated MEK1 kinase dead
row,SMILES,IC50 [nM]
1,"Cc1ccc(C(=O)Nc2cccc(C(F)(F)F)c2)cc1-c1cc(N2CCOCC2)c(=O)n(CCS(C)(=O)=O)c1 [Example 154, 4-methyl-3-(1-(2-(methylsulfonyl)ethyl)-5-morpholino-6-oxo-1,6-dihydropyridin-3-yl)-N-(3-(trifluoromethyl)phenyl)benzamide]",1.09
2,"Cc1ccc(NC(=O)c2ccnc(C(C)(C)C#N)c2)cc1-c1ccnc(N2C[C@@H](CN(C)C)OC[C@H]2C)c1 [Example 79, 2-(2-cyanopropan-2-yl)-N-(3-(2-((2R,5R)-2-((dimethylamino)methyl)-5-methylmorpholino)pyridin-4-yl)-4-methylphenyl)isonicotinamide]",28
3,"Cc1ccc(NC(=O)c2cncnc2)cc1-c1ccnc(N2CCOCC2)c1 [Example 71, N-(4-methyl-3-(2-morpholinopyridin-4-yl)phenyl)pyrimidine-5-carboxamide]",83.3
4,"Cc1ccc(NC(=O)c2ccnc(C(F)F)c2)cc1-c1cc(N2CCOCC2)c(=O)n(C)n1 [Example 189, 2-(difluoromethyl)-N-(4-methyl-3-(1-methyl-5-morpholino-6-oxo-1,6-dihydropyridazin-3-yl)phenyl)isonicotinamide]",0.678
5,"Cc1ccc(NC(=O)c2cccc(C(F)(F)F)c2)cc1-c1cc(N2CC3CC2CO3)nc(N2CCOCC2)n1 (stereo not drawn) [Example 51, N-(3-(6-(2-oxa-5-azabicyclo[2.2.1]heptan-5-yl)-2-morpholinopyrimidin-4-yl)-4-methylphenyl)-3-(trifluoromethyl)benzamide]",0.661
6,"O=C(Nc1cccc(C(F)(F)F)c1)c1ccc(C(F)F)c(-c2ccnc(N3CCOCC3)c2)c1 [Example 109, 4-(difluoromethyl)-3-(2-morpholinopyridin-4-yl)-N-(3-(trifluoromethyl)phenyl)benzamide]",0.719
7,Cc1ccc(NC(=O)c2ccnc(C(C)(C)C#N)c2)cc1-c1cc2[nH]cnc2c(N2CCOC[C@H]2C)n1 [Example 210],2.73
8,"Cc1ccc(NC(=O)c2cccc(C(F)(F)F)c2)cc1-c1cc(N2CCOCC2)c[nH]c1=O [Example 125, N-(4-methyl-3-(5-morpholino-2-oxo-1,2-dihydropyridin-3-yl)phenyl)-3-(trifluoromethyl)benzamide]",6.38
9,"Cc1ncc(NC(=O)c2cccc(C(F)(F)F)c2)cc1-c1cc(N2CCOCC2)c(=O)n(CCS(C)(=O)=O)c1 [Example 151, N-(2-methyl-1′-(2-(methylsulfonyl)ethyl)-5′-morpholino-6′-oxo-1′,6′-dihydro-[3,3′-bipyridin]-5-yl)-3-(trifluoromethyl)benzamide]",2.9
10,"COc1ncc(-c2cc(NC(=O)c3ccnc(C(C)(C)C#N)c3)ccc2C)cc1N1CCOCC1 [Example 128, 2-(2-cyanopropan-2-yl)-N-(3-(6-methoxy-5-morpholinopyridin-3-yl)-4-methylphenyl)isonicotinamide]",0.873
11,"Cc1ccc(NC(=O)c2cccc(S(C)(=O)=O)c2)cc1-c1cc(N2CCOCC2)nc(N2CCOCC2)n1 [Example 23, N-(3-(2,6-dimorpholinopyrimidin-4-yl)-4-methylphenyl)-3-(methylsulfonyl)benzamide]",0.86
12,"Cc1ccc(C(=O)Nc2cccc(C(F)(F)F)c2)cc1-c1nc(N2CCOCC2)cc(N2CCOCC2)n1 [Example 14, 3-(4,6-dimorpholinopyrimidin-2-yl)-4-methyl-N-(3-(trifluoromethyl)phenyl)benzamide]",0.616

# Compounds with a lower IC50, results first:
row,IC50 [nM],SMILES
1,0.25,"Cc1ccc(NC(=O)c2ccnc(S(C)(=O)=O)c2)cc1-c1ccnc(N2CCOCC2)c1 [Example 73, N-(4-methyl-3-(2-morpholinopyridin-4-yl)phenyl)-2-(methylsulfonyl)isonicotinamide]"
2,0.214,"CCNc1nc(-c2cc(NC(=O)c3cccc(C(F)(F)F)c3)ccc2C)cc(N2CCOCC2)n1 [Example 28, N-(3-(2-(ethylamino)-6-morpholinopyrimidin-4-yl)-4-methylphenyl)-3-(trifluoromethyl)benzamide]"
3,0.503,"Cc1ccc(NC(=O)c2cccc(C(F)(F)F)c2)cc1-c1cnc(OC(C)C)c(N2CCOCC2)c1 [Example 136, N-(3-(6-isopropoxy-5-morpholinopyridin-3-yl)-4-methylphenyl)-3-(trifluoromethyl)benzamide]"
4,0.11,"Cc1ccc(NC(=O)c2cccc(C(F)(F)F)c2)cc1-c1cc(N2CCOCC2)nc(S(C)(=O)=O)n1 [Example 27, N-(4-methyl-3-(2-(methylsulfonyl)-6-morpholinopyrimidin-4-yl)phenyl)-3-(trifluoromethyl)benzamide]"
5,0.191,"Cc1ccc(NC(=O)c2cccc(C(F)(F)F)c2)cc1-c1cc(OC2CCOCC2)nc(N2CCOCC2)n1 [Example 56, N-(4-methyl-3-(2-morpholino-6-((tetrahydro-2H-pyran-4-yl)oxy)pyrimidin-4-yl)phenyl)-3-(trifluoromethyl)benzamide]"
6,0.187,"Cc1ccc(NC(=O)c2cccc(C(F)(F)F)c2)cc1-c1c[nH]c(=O)c(N2CCOCC2)n1 [Example 120, N-(4-methyl-3-(6-morpholino-5-oxo-4,5-dihydropyrazin-2-yl)phenyl)-3-(trifluoromethyl)benzamide]"
7,0.421,"Cc1ccc(NC(=O)c2cccc(C(F)(F)F)c2)cc1-c1cc(N2CCOCC2)nc(N2CC3(COC3)C2)n1 [Example 29, N-(4-methyl-3-(6-morpholino-2-(2-oxa-6-azaspiro[3.3]heptan-6-yl)pyrimidin-4-yl)phenyl)-3-(trifluoromethyl)benzamide]"
8,0.056,"Cc1ccc(NC(=O)c2cccc(C(F)F)c2)cc1-c1ccnc(N2CCOCC2)c1 [Example 75, 3-(difluoromethyl)-N-(4-methyl-3-(2-morpholinopyridin-4-yl)phenyl)benzamide]"
9,0.516,Cc1ccc(NC(=O)c2cc(CN(C)C)cc(C(F)(F)F)c2)cc1-c1cc(N2CCOCC2)nc(N2CCOCC2)n1 [Example 20]
10,0.199,"Cc1ccc(NC(=O)c2cccc(C(F)(F)F)c2)cc1-c1ccnc(N2CCO[C@H](CO)C2)c1 [Example 78, (S)—N-(3-(2-(2-(hydroxymethyl)morpholino)pyridin-4-yl)-4-methylphenyl)-3-(trifluoromethyl)benzamide]"
11,0.393,"CCOc1ncc(-c2cc(NC(=O)c3ccnc(C(C)(C)C#N)c3)ccc2C)cc1N1CCOCC1 [Example 161, 2-(2-cyanopropan-2-yl)-N-(3-(6-ethoxy-5-morpholinopyridin-3-yl)-4-methylphenyl)isonicotinamide]"
12,0.182,Cc1ncc(NC(=O)c2cccc(C(F)(F)F)c2)cc1-c1ccnc(N2CCOCC2)c1 [Example 96]
13,0.16,"Cc1ccc(NC(=O)c2ccnc(C(F)(F)F)c2)cc1-c1cc(N2CCOCC2)c(=O)n(C)c1 [Example 179, N-(4-methyl-3-(1-methyl-5-morpholino-6-oxo-1,6-dihydropyridin-3-yl)phenyl)-2-(trifluoromethyl)isonicotinamide]"
14,0.16,"Cc1ncc(NC(=O)c2cccc(C(F)F)c2)cc1-c1ccnc(N2CCOCC2)c1 [Example 99, 3-(difluoromethyl)-N-(2-methyl-2′-morpholino-[3,4′-bipyridin]-5-yl)benzamide]"
15,0.225,Cc1ccc(NC(=O)c2cccc(C(F)(F)F)c2)cc1-c1cc(N2CCOCC2)c2oc(=O)[nH]c2c1 [Example 207]
